# Measurements published in US20240261374A1, “PHARMACEUTICAL COMPOSITION AND KIT COMPRISING AN IMMUNOMODULATORY SUBSTANCE FOR TREATING DISEASES” (ellennbe GmbH, priority 2021, published 2024).
# Test system: rheumatoid arthritis
# Experiment: Treatment of patients suffering from rheumatoid arthritis (CRP, tender/swollen joints, HAQ, patient's statement)
# Format: in vivo, human
# Conditions: Patient 7; not the treatment of the invention
# Source text: The investigation and determination of the joint condition has been performed by a physician or rheumatologist. A tender joint (TJ) was pressure sensitive but not necessarily swollen. […] The amount of TJ and SJ was counted. A reduction in the amounts of TJ and/or SJ, respectively, was an indication for a reduction in inflammation, mitigation of the disease and an improvement of the patient's health condition.
# The CRP (C-reactive protein) is the most important blood laboratory value for detecting and monitoring inflammation in the body. It was determined by a certified laboratory. A low CRP indicates the absence of an inflammation, while a high CRP is indicative for an inflammation to be present.
# The HAQ (Health assessment Questionnaire) is a standardized questionnaire to assess disability due to inflammatory rheumatic joint disease like polyarthritis, rheumatoid arthritis, psoriatic arthritis, polymyalgia rheumatic etc. Patients completed this questionnaire themselves, assessing their ability to perform the following activities in eight daily functional domains: Dressing, getting up, eating, walking, personal hygiene, handing objects, grasping, other activities.
# The functional disability index (HAQ) is the average of the highest numerical values reported for each of the eight different domains. High HAQ-scores correspond to a high degree of disability. […]
substance,measurement,value
abatacept: selective immunosuppressive inhibiting T-cell activation,Effectiveness of earlier or basic treatment (patient history),insufficient effectiveness
